This note sets out measurements from US6107324A, “5-HT2A receptor inverse agonists” (priority 1999, dated 2000).

Assay [1] concerns dopamine D2 receptor (caudate nucleus). The assay can be described thus: I125-LSD displacement from rat brain sections, caudate (dopamine D2). Format: binding, Sprague-Dawley rats. To be noted: 1 micromolar compound, 1 nanomolar I125-LSD, 30 minutes room temperature. On the procedure:
(§1) Animals (Sprague-Dawley rats) were sacrificed and brains were rapidly dissected and frozen in isopentane maintained at -42° C. Horizontal sections were prepared on a cryostat and maintained at -20° C.
(§2) Lysergic acid diethylamide (LSD) is a potent 5HT2A receptor and dopamine D2 receptor ligand. An indication of the selectivity of compounds for either or both of these receptors involves displacement of radiolabeled-bound LSD from pre-treated brain sections. For these studies, radiolabeled I^125 -LSD (NEN Life Sciences, Boston, Mass., Catalogue number NEX-199) was utilized; spiperone (RBI, Natick, Mass. Catalogue number s-128), a 5HT2A receptor and dopamine D2 receptor antagonist, was also utilized. Buffer consisted of 50 nanomolar TRIS-HCl, pH 7.4.
(§3) Brain sections were incubated in (a) Buffer plus 1 nanomolar I^125 -LSD; (b) Buffer plus 1 nanomolar I^125 -LSD and 1 micromolar spiperone; or Buffer plus 1 nanomolar I^125 -LSD and 1 micromolar 116100 for 30 minutes at room temperature. Sections were then washed 2× 10 minutes at 4° C. in Buffer, followed by 20 seconds in distilled H2 O. Slides were then air-dried.
(§4) After drying, sections were apposed to x-ray film (Kodak Hyperfilm) and exposed for 4 days.

Assay [2] relates to 5HT2A receptor (cerebral cortex). The assay can be described thus: I125-LSD displacement from rat brain sections, cerebral cortex (5HT2A). Format: binding, Sprague-Dawley rats. To be noted: 1 micromolar compound, 1 nanomolar I125-LSD, 30 minutes room temperature. On the procedure: as §1, §2, §3, §4

Take `O=C(CCCN1CCC2(CC1)C(=O)NCN2c1ccccc1)c1ccc(F)cc1` [spiperone, reference compound]: the “displacement of I125-LSD from caudate” value in assay [1] was “displaces the I^125 -LSD from these receptors on both the cortex and the caudate”. Also, in assay [2], the “displacement of I125-LSD from cortex” value was “displaces the I^125 -LSD from these receptors on both the cortex and the caudate”.
